In patent US7569225B2, “Immunogenic lipopeptides comprising T-helper and B-cell epitopes” (The Council of The Queensland Institute of Medical Research, priority 2002, dated 2009):
Several values for one entry are separate records, joined by “and”; a condition that tells them apart may be missing. Equal entries are not always repeated. Where two headings read alike, the source gives them in different places.

Legend:
female mice = format: in vivo, BALB/c mice; settings: for Pregnancy status (No. of animals per group that dropped litters): subcutaneous, fertility experiment initiated two weeks after second dose
[1] = Solubility of peptides and lipopeptides in saline (visual inspection); format: physicochemical; settings: no higher concentrations were examined, read-out: soluble in saline at concentrations of at least
Procedure: FIG. 2 is a photographic representation showing the solubilities of lipopeptides designated [Th]-Lys(Pam2Cys-Ser-Ser)-[B] (left) and Pam2Cys-Ser-Ser-[Th]-[B] (right) in FIG. 1, wherein the polypeptide moieties have the amino acid sequences set forth in SEQ ID NO: 7 and SEQ ID NO: 5, respectively. Both solutions are approximately 1 mg/ml lipopeptide in saline solution.
Enhanced solubility was most evident in those cases where lipid was attached between the two epitopes at the approximate centre of the molecule. The lipopeptides designated [Th]-Lys(Pam2Cys)-[B] and [Th]-Lys(Pam3Cys)-[B] were soluble in saline at concentrations of at least 8 mg/ml (no higher concentrations were examined), whereas constructs in which lipid was attached to the N-terminus of the sequence formed opalescent solutions at concentrations as low as 0.25 mg/ml.
We considered that the insoluble nature of this construct would prevent it from being considered as a viable proposition for manufacture as a vaccine.

## CCCCCCCCCCCCCCCC(=O)N[C@@H](CSCC(COC(=O)CCCCCCCCCCCCCCC)OC(=O)CCCCCCCCCCCCCCC)C(=O)NCCCC[C@H](NC(=O)[C@H](CO)NC(=O)[C@H](CCCCN)NC(=O)[C@H](CC(C)C)NC(=O)[C@H](CCC(=O)O)NC(=O)[C@@H](NC(=O)CNC(=O)[C@H](CCCCN)NC(=O)[C@@H](NC(=O)[C@H](CCC(N)=O)NC(=O)[C@H](Cc1ccccc1)NC(=O)[C@H](CCCNC(=N)N)NC(=O)[C@H](CC(N)=O)NC(=O)[C@H](CC(N)=O)NC(=O)[C@H](CC(C)C)NC(=O)[C@H](C)NC(=O)CN)[C@@H](C)CC)C(C)C)C(=O)N[C@@H](CCC(=O)O)C(=O)N[C@@H](Cc1c[nH]cn1)C(=O)N[C@@H](Cc1c[nH]c2ccccc12)C(=O)N[C@@H](CO)C(=O)N[C@@H](Cc1ccc(O)cc1)C(=O)NCC(=O)N[C@@H](CC(C)C)C(=O)N[C@@H](CCCNC(=N)N)C(=O)N1CCC[C@H]1C(=O)NCC(=O)O (some centres unmarked) [[Th]-Lys(Pam3Cys)-[B]]
Female mice; 1 nmole
  Pregnancy status (No. of animals per group that dropped litters): 5 of 5 and 5/5
Female mice; 10 nmole
  Pregnancy status (No. of animals per group that dropped litters): 3 of 5 and 3/5
Female mice; 20 nmoles subcutaneously, animals per group of five
  Incidence of pregnancy 13 weeks after 2nd Dose: still infertile and 0/5
Female mice; 20 nmoles subcutaneously, animals that dropped litters per group of five
  Incidence of pregnancy 2 weeks after 2nd Dose: None of the mice and 0/5
[1]
  solubility: ≥ 8000 µg/mL
